In ChEMBL document CHEMBL3120159, “Discovery of 2-pyridone derivatives as potent HIV-1 NNRTIs using molecular hybridization based on crystallographic overlays” (Bioorg Med Chem, 2014):

Target: Human immunodeficiency virus type 1 reverse transcriptase (Human immunodeficiency virus 1, UniProt Q72547)
Test: Inhibition of HIV1 reverse transcriptase assessed as inhibition of biotinylated dUTP incorporation after 1 hr by ELISA

`Cc1cc(C#N)cc(C)c1Oc1nc(Nc2ccc(C#N)cc2)nc(N)c1Br` [ETRAVIRINE] was tested, and the IC50 was 180 nM.
